Target: dipeptidyl peptidase-IV enzyme (DPP-4) (Homo sapiens (Human), UniProt P27487)
Assay: continuous fluorometric assay with substrate Gly-Pro-AMC (DPP-4 inhibition)
Type: biochemical
Conditions: soluble human DPP-4, 50 μM Gly-Pro-AMC, pH 7.5, room temperature
Description: Inhibition constants are determined as follows. A continuous fluorometric assay is employed with the substrate Gly-Pro-AMC, which is cleaved by DPP-4 to release the fluorescent AMC leaving group. The kinetic parameters that describe this reaction are as follows: […] A typical reaction contains approximately 50 pM enzyme, 50 μM Gly-Pro-AMC, and buffer (100 mM HEPES, pH 7.5, 0.1 mg/ml BSA) in a total reaction volume of 100 μL. Liberation of AMC is monitored continuously in a 96-well plate fluorometer using an excitation wavelength of 360 nm and an emission wavelength of 460 nm. Under these conditions, approximately 0.8 μM AMC is produced in 30 minutes at 25 degrees C. The enzyme used in these studies was soluble (transmembrane domain and cytoplasmic extension excluded) human protein produced in a baculovirus expression system (Bac-To-Bac, Gibco BRL). […] To measure the dissociation constants for compounds, solutions of inhibitor in DMSO were added to reactions containing enzyme and substrate (final DMSO concentration is 1%). All experiments were conducted at room temperature using the standard reaction conditions described above. To determine the dissociation constants (Ki), reaction rates were fit by non-linear regression to the Michaelis-Menton equation for competitive inhibition. The errors in reproducing the dissociation constants are typically less than two-fold.

Amino acid sequences for entries named in this document (tags omitted). Residues count along the entry.
UniProt P27487, 29-766: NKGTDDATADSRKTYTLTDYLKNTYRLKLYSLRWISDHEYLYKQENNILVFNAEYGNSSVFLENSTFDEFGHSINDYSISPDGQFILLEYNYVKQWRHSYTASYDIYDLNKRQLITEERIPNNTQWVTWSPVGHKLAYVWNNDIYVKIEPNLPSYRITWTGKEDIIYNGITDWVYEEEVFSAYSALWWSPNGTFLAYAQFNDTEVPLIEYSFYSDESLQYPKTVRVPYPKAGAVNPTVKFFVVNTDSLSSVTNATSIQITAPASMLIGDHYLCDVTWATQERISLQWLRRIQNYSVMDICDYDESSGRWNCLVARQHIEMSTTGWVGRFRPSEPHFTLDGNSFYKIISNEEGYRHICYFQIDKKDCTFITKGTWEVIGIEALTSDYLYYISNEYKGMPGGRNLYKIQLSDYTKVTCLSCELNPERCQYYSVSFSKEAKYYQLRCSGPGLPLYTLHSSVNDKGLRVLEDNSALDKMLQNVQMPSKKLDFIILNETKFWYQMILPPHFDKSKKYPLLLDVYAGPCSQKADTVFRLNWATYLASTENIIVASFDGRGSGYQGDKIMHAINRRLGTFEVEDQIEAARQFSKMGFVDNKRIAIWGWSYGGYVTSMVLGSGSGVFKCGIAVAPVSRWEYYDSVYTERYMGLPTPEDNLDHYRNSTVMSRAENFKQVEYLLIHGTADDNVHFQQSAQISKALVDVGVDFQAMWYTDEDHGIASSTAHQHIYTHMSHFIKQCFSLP

IC50: 34.5 nM
SMILES: C[C@]1(N2Cc3c[nH]nc3C2)CO[C@H](c2cc(F)ccc2F)[C@@H](N)C1 [Example 2]

— US9156848B2, “Treating diabetes with dipeptidyl peptidase-IV inhibitors” (Merck Sharp & Dohme Corp., priority 2012, dated 2015)
